The numbers were not newly measured in patent US8183280B2, “FAP inhibitors” (Vantia Limited, priority 2005, dated 2012), which cites them from elsewhere.

Protein sequences, listed by entry. Tags and fused reporters are not part of them.
UniProt P27487, whole entry: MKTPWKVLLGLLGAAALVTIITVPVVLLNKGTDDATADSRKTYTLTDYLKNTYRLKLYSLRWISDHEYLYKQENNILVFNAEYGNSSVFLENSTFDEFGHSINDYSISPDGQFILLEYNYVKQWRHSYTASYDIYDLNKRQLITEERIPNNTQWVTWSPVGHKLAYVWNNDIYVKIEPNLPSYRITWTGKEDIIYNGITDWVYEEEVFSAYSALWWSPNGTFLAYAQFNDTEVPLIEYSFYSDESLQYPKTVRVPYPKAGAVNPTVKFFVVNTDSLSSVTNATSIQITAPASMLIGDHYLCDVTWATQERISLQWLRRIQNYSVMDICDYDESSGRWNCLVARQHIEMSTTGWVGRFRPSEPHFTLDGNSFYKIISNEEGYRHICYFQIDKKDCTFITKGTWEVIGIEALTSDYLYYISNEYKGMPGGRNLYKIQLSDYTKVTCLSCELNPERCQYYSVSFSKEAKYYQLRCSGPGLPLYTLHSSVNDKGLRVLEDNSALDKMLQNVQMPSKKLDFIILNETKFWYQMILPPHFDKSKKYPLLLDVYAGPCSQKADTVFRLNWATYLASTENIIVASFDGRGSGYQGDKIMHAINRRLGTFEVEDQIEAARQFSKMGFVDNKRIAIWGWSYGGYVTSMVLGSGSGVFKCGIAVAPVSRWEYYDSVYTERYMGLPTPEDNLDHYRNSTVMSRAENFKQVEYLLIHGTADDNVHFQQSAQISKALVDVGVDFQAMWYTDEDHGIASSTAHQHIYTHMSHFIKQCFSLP

The data set has as its target DPIV (Homo sapiens, UniProt P27487). Particulars: literature report, J. Med. Chem., 1996, 39, 2087.

For the compound `CC(C)[C@H](N)C(=O)N1CCC[C@H]1B(O)O` [ValboroPro], the DPIV inhibition result is reported as “potent inhibitor of DPIV”.
